Experimental data taken from patent US20220304998A1, “REBAMIPIDE FOR USE IN PREVENTION AND TREATMENT OF CROHN'S DISEASE” (SQUARE POWER LTD., priority 2019, published 2022).

Tested on: patients suffering from Crohn's disease
Assay: Clinical course, response and tolerability in Crohn's disease patient case reports
Type: in vivo, human
Details: Example 2; after three months on mesalazine
Text: Several patients suffering from Crohn's disease for at least 5 years without sufficient response to standard treatment were given rebamipide tablets three times a day. […] The severity of the disease was quantified by the CDAI, and the level of inflammation by fecal calprotectin.

Nc1ccc(O)c(C(=O)O)c1 [mesalazine, 5-aminosalicylic acid]
adverse reaction: pancreatitis
